Source: ChEMBL document CHEMBL5108065, “Discovery and Characterization of Potent, Efficacious, Orally Available Antimalarial Plasmepsin X Inhibitors and Preclinical Safety Assessment of UCB7362” (J Med Chem, 2022)

Legend:
[1] = tested on: Plasmodium falciparum; experiment: Antimalarial activity against Plasmodium falciparum 3D7 assessed as parasite reduction ratio at 10 times IC50 measured for 24 to 120 hrs by serial dilution analysis; assay type: functional; conditions: time 24-120 hrs
[2] = Efflux ratio of apparent permeability in human Caco-2 cells at 50 uM; assay type: ADME, cell-based; conditions: caco-2, 50 µM
[3] = Efflux ratio of apparent permeability in human Caco-2 cells at 10 uM; assay type: ADME, cell-based; conditions: caco-2, 10 µM
[4] = Efflux ratio of apparent permeability in human Caco-2 cells at 2 uM; assay type: ADME, cell-based; conditions: caco-2, 2 µM

With C[C@H]1C[C@@H](N2C(=N)N[C@](C)(c3cccc(NC(=O)c4cccc(C#N)c4)c3Cl)CC2=O)CCO1 the “log(ratio)” value [1] was 3.2, the Ratio [2] was 85 and the Ratio [3] was 169. It also gave a Ratio [4] of 411.
